Compound activity (PubChem)
In the library only some 2.1% were active in any assay of this set; here they are far more common.
PDI inh: inhibitors of human protein disulfide isomerase | PDI insulin aggregation turbidity, A650, 90 min | inhibition, % at 10 µM | 0.052% of 350,000 active;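 active means mean inhibition across replicates of 30% or more, whatever share of single replicates reach that level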
UUG fidelity: yeast start codon fidelity modulation; AID 602363; activity score, % at 18.7 µM; S. cerevisiae UUG-firefly luciferase reporter, luminescence/redox ratio; 0.13% of 350,000 active;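 active means replicate mean at a twofold rise or more, about +100% in these data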;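 further: firefly luciferase made from a UUG start codon reports start codon fidelity; reporter light over untreated wells divided by growth signal over untreated wells; some hits fall short of that in this replicate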
GSIS activator: GLuc luminescence reporter in INS-1E cells, primary screen for activators of glucose-dependent secretion of insulin | INS-1E GLuc reporter insulin secretion, 2-3 h | activation, % at 16.6 µM | 0.61% of 370,000 active;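 active means lowest replicate activation of at least 40%, so every replicate reaches that level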;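 further: 0% = median of neutral control wells and 100% = median of IBMX positive control wells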
SMARCA2 activ: increases SMARCA2 function in MMTV reporter cells. MG213 cells, MMTV-luciferase reporter, dexamethasone, overnight. activation, % at 9.1 µM. 1% of 370,000 active. AID 652017; in the data active means activation above about 7.8%;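 further: 0% = vehicle wells and 100% = reference activator wells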
NR1D1 modulator: Rev-erb alpha (human) modulation. P20393. Rev-erbα–FITC-DNA binding, fluorescence polarization, 90 min. activity, % at 10 µM. 0.79% of 370,000 active;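 active means activity above about 14%, limit read from the data; passing the limit was not always enough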;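 further: 0% = DMSO wells with 35 nM protein and 100% = DMSO wells with 750 nM protein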
ERp5 block: ERp5 (human) disulfide isomerase inhibition; Q15084; ERp5 insulin aggregation, absorbance 650 nm, 90 min; inhibition, % at 9.99 µM; 0.05% of 350,000 active;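 active means mean replicate inhibition above about 25%, with every replicate also reaching it, limit read from the data, passing the limit was not always enough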
SMARCA2 act conf: confirmation of SMARCA2 (BRM) function activators | shares compounds with SMARCA2 activ | MG213 cells, MMTV-luciferase with dexamethasone, luminescence, overnight; MG213 cells expressing E1A, Rb sequestered; DMSO wells 0%, reference activator 100% | activation, % at 9.1 µM | 30% of 3,500 active | AID 652260;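 active means activation above its plate's cutoff, the mean activation of tested wells plus 3 SD, cut at about 7.9% in these data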
VP16 Luc act: counter-screen for SMARCA2 activators: GAL4-VP16 luciferase reporter activation | shares compounds with SMARCA2 activ | HEK293 GAL4-VP16 pG5luc reporter, luciferase luminescence; scaled: DMSO wells 0%, SAHA wells 100% | activation, % at 9.1 µM | 41% of 3,500 active;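 active means activation above the solvent-only control well mean plus 3 SD, averaged across control plates, cut at about 5.2% in these data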
* hit, by the source's call; · = not tested or not shown.

(1) C[C@@H]1CN([C@H](C)CO)C(=O)c2cccc(NC(=O)c3ccc(-c4nccs4)cc3)c2O[C@@H]1CN(C)C(=O)Nc1ccc2c(c1)OCO2
(2) c1ccc2[nH]c(-c3ccncc3)nc2c1
(3) CC(C1=CCCCC1)c1cnn(C)c1 (stereo not drawn)
(4) Cc1nccc2oc(=O)c(NC(=O)c3ccc(Cl)cc3)cc12
(5) O=C(Nc1cc2c(oc1=O)CCCC2=O)c1ccc(Cl)cc1
(6) CC(O)CN=c1cc(-c2ccccc2)oc2ccc(Cl)cc12 (stereo not drawn)
(7) CCOc1cc2c(cc1OCC)C(c1ccccc1)N(c1ccc(C(=O)O)cc1)C(=O)C2 (stereo not drawn)
(8) CCNC(=S)/C(=C(/[O-])c1ccc([N+](=O)[O-])cc1)[n+]1ccccc1
(9) O=[N+]([O-])c1cccc(/C([O-])=C(/C(=S)Nc2ccccc2)[n+]2ccccc2)c1
(10) Clc1ccc2c(c1)-c1ccccc1C1=NCCN12

Assay by compound	1	2	3	4	5	6	7	8	9	10
NR1D1 modulator	·	1	7	-2	-19	0	2	-1	-3	5
GSIS activator	-2	-33	·	-11	·	12	31	8	18	·
ERp5 block	0	2	·	7	·	4	4	0	·	5
PDI inh	·	-1	·	1	0	-2	0	1	10	-63
SMARCA2 activ	·	9.5*	9.4*	7	9.4*	8.4*	9.5*	-2	8.5*	16*
VP16 Luc act	·	2	-1	·	2	13*	-1	·	6.3*	5
UUG fidelity	0	·	·	-10	-34	-8	22	·	·	·
SMARCA2 act conf	·	1	-1	·	5	18*	5	·	0	313*

(11) Brc1ccc2c(c1)-c1ccccc1C1=NCCN12
(12) COc1ccc(CNS(=O)(=O)CC2NCc3cc(OC)ccc32)cc1 (stereo not drawn)
(13) OCCCNc1c2ccccc2nc2ccccc12
(14) C[C@@H]1CN([C@H](C)CO)C(=O)c2cc(NS(=O)(=O)c3cccs3)ccc2O[C@@H](C)CCCCO[C@H]1CN(C)C(=O)NC1CCCCC1
(15) O=[N+]([O-])c1cccc(-c2noc(-c3cccs3)n2)c1
(16) C[C@@H]1CN([C@H](C)CO)S(=O)(=O)c2ccc(C3=CCCCC3)cc2O[C@@H]1CN(C)C(=O)c1ccccc1
(17) CC(=O)N1N=C(c2cccc(NS(C)(=O)=O)c2)CC1c1ccc2c(c1)OCO2 (stereo not drawn)
(18) CS(=O)(=O)Nc1ccc(C2=NN(S(C)(=O)=O)C(c3ccc4c(c3)OCO4)C2)cc1 (stereo not drawn)
(19) CC(=O)N(C)C[C@H]1Oc2ccc(N(C)C)cc2CC(=O)N(C)C[C@H]1C
(20) CC1C/C(=N/NC(=O)c2cccc(F)c2)c2ccc(O)cc2C1 (stereo not drawn)

Assay by compound	11	12	13	14	15	16	17	18	19	20
NR1D1 modulator	0	0	1	·	1	·	4	1	·	-2
GSIS activator	·	·	-11	-10	·	-25	24	42	-1	-18
ERp5 block	1	·	2	1	-1	13	2	·	·	·
PDI inh	5	·	1	·	3	·	17	-8	·	-7
SMARCA2 activ	1	10.0*	19*	·	11*	·	2	10*	·	9.2*
VP16 Luc act	·	0	1	·	4	·	·	6.6*	·	0
UUG fidelity	-42	·	-18	14	·	12	-19	·	·	·
SMARCA2 act conf	·	2	145*	·	5	·	·	16*	·	-3

Part of the list above, with each value named:
18: CS(=O)(=O)Nc1ccc(C2=NN(S(C)(=O)=O)C(c3ccc4c(c3)OCO4)C2)cc1 (stereo not drawn)
- NR1D1 modulator: 1
- GSIS activator: 42
- ERp5 block: ·
- PDI inh: -8
- SMARCA2 activ: 10*
- VP16 Luc act: 6.6*
- UUG fidelity: ·
- SMARCA2 act conf: 16*

11: Brc1ccc2c(c1)-c1ccccc1C1=NCCN12
- NR1D1 modulator: 0
- GSIS activator: ·
- ERp5 block: 1
- PDI inh: 5
- SMARCA2 activ: 1
- VP16 Luc act: ·
- UUG fidelity: -42
- SMARCA2 act conf: ·

(continued)
(21) COc1ccccc1/C=C/C(=O)OCC(=O)Nc1ccc(Cl)cn1
(22) CO[C@@H]1CN(C)C(=O)c2ccc(NC(=O)c3ccccc3F)cc2OC[C@H](C)N(CC2CC2)C[C@@H]1C
(23) CCCn1c(C)cc(C(=O)Cn2nnc3ccccc3c2=O)c1C
(24) CCCn1c(C)cc(C(=O)CN2C(=O)c3ccccc3S2(=O)=O)c1C
(25) CC(C)CN(/C=N/c1sc2c(c1C#N)CCCCC2)CC(C)C

Assay by compound	21	22	23	24	25
NR1D1 modulator	3	·	3	6	2
GSIS activator	4	10	-13	1	·
ERp5 block	9	-2	0	-4	·
PDI inh	-3	·	-4	6	0
SMARCA2 activ	8.9*	·	9.1*	-9	-5
VP16 Luc act	1	·	7.3*	·	·
UUG fidelity	-12	0	·	1	-5
SMARCA2 act conf	11*	·	10*	·	·
